{"sequences": {"note": "Chains of the proteins cited; added tags and fusions are not shown. Lines headed by an entry give the natural chain unless they say otherwise; changes in a name come on top.", "UniProt P02768": "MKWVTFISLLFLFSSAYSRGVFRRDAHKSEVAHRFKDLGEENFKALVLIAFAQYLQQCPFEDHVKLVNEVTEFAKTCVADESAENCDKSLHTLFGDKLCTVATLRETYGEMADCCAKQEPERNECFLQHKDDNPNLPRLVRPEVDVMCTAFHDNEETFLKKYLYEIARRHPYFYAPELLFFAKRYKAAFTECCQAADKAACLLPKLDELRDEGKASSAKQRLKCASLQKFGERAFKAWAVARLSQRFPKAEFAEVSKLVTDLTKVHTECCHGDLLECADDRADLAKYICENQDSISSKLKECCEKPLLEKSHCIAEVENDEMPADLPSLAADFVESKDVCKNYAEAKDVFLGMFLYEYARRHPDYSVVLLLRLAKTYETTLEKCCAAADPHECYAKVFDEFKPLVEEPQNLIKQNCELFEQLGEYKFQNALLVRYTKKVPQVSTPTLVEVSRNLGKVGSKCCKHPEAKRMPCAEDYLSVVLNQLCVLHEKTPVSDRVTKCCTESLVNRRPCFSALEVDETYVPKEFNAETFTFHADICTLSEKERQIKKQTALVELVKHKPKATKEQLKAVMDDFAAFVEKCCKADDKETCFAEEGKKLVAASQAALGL"}, "source": "patent US20250354930A1", "about": "“IONIC LIQUID ENCAPSULATION OF NIR DYES FOR THE IMPROVEMENT OF BLOODSTAIN DETECTION” (University of Mississippi, priority 2024, published 2025)", "key": {"[1]": {"target": "HSA (Homo sapiens, UniProt P02768)", "assay": "Dynamic light scattering size and zeta potential of HSA systems"}, "[2]": {"assay": "Fluorescence measurements of dye/IL systems with and without human whole blood", "settings": "for effect on the dye's fluorescence in the absence of blood: IL scanned 0-240 mM"}, "[3]": {"target": "tryptophan residue of HSA (Homo sapiens, UniProt P02768)", "assay": "Fluorescence measurements of albumin tryptophan residue"}, "[4]": {"assay": "Conductivity measurements of 160 mM solutions", "type": "physicochemical", "protocol": "Conductivity was measured using a Thermo Scientific Orion Star […] conductivity meter using a DuraProbe 4-electrode conductivity cell. […] The clean probe was introduced into each solution to record the conductivity. The conductivity was measured in triplicate for each of the solutions."}, "[5]": {"system": "bacterial plasmid DNA", "assay": "Circular dichroism spectroscopy of DNA", "settings": "12 nM DNA, 2.5% IL (160 mM); peaks at 245 and 265 nm"}, "[6]": {"settings": "0.1 mg/mL HSA in 10 μM SO3SQ with 160 mM CG 1:1 added"}}, "data": [{"substance": "Choline Glycolate 1:1", "values": [{"measurement": "average charge (zeta potential)", "setting": "[1]; [6]", "result": "−0.30±0.60", "unit": "mV"}, {"measurement": "average size", "setting": "[1]; [6]", "result": "170±40", "unit": "nm"}, {"measurement": "average size of the complex", "setting": "[1]; 0.1 mg/mL HSA in water with 160 mM CG 1:1 added (HSA in water alone 50±30 nm)", "result": "430±150", "unit": "nm"}, {"measurement": "average charge (zeta potential)", "setting": "[1]; 0.1 mg/mL HSA in water with 160 mM CG 1:1 added (HSA in water alone −9.8±0.7 mV)", "result": "−0.17±0.17", "unit": "mV"}, {"measurement": "size peak of CG 1:1 own complexes in solution", "setting": "[1]; HSA in water with 160 mM CG 1:1", "result": "−600", "unit": "nm"}, {"measurement": "effect on the dye's fluorescence in the absence of blood", "setting": "[2]; 10 μM dye", "result": "suppressing the emission"}, {"measurement": "effect on the dye's fluorescence in the presence of blood", "setting": "[2]; 10 μM dye, IL scanned 0-240 mM or additive at 160 mM", "result": "noticeable increase"}, {"measurement": "effect on the dye's fluorescence in the absence of blood", "setting": "[2]; 10 μM dye, listed as CG (1:1)", "result": "decrease"}, {"measurement": "increase of the dye's fluorescence in the presence of blood relative to the sample without any IL", "setting": "[2]; 160 mM IL, 10 μM SO3SQ", "result": 5, "unit": "fold"}, {"measurement": "blueshift of tryptophan wavelength maximum", "setting": "[3]; CG (1:1) added to HSA in water, from 333 nm to 329 nm", "result": 4, "unit": "nm"}, {"measurement": "decrease in the intensity of the fluorescence of the tryptophan residue", "setting": "[3]; condition 1: CG (1:1) added into 0.1 mg/mL HSA in water, no dye", "result": "about 10%"}, {"measurement": "decrease in the intensity of the fluorescence of the tryptophan residues", "setting": "[3]; condition 2: CG (1:1) added to 0.1 mg/mL HSA already containing 10 μM SO3SQ", "result": 70, "unit": "%"}, {"measurement": "average conductivity", "setting": "[4]; 160 mM solution in SO3SQ", "result": "187.0±0.5", "unit": "μS/cm"}, {"measurement": "average conductivity", "setting": "[4]; 160 mM solution in water", "result": "189.4±0.7", "unit": "μS/cm"}, {"measurement": "effect on the structure of plasmid DNA", "setting": "[5]", "result": "limited structural changes to the DNA"}]}]}
